{
  "source": "patent US20260266828A1",
  "about": "“BIOMARKERS FOR PREDICTING CANCER TREATMENT EFFICACY” (Arcus Biosciences, Inc., priority 2023, published 2026)",
  "system": "MC38 cells",
  "conditions": "experimentally determined, 72 h",
  "data": [
    {"smiles": "O=C1[O][Pt]2([NH][C@@H]3CCCC[C@H]3[NH]2)[O]C1=O", "note": "[OXA, oxaliplatin]", "values": [
      {"measurement": "non-cytotoxic concentration range", "result": "0.001 to 0.03", "unit": "µM"}
    ]}
  ]
}
